Experimental data reported in patent US20090042912A1, “DIPHENYLIMIDAZOLYL COMPOUNDS AS INHIBITORS OF beta-SECRETASE” (Wyeth, priority 2004, published 2009).

By UniProt entry, the sequences of proteins in these tests, tags left out. Residues count along the entry.
UniProt P56817, 46-501 limits assumed: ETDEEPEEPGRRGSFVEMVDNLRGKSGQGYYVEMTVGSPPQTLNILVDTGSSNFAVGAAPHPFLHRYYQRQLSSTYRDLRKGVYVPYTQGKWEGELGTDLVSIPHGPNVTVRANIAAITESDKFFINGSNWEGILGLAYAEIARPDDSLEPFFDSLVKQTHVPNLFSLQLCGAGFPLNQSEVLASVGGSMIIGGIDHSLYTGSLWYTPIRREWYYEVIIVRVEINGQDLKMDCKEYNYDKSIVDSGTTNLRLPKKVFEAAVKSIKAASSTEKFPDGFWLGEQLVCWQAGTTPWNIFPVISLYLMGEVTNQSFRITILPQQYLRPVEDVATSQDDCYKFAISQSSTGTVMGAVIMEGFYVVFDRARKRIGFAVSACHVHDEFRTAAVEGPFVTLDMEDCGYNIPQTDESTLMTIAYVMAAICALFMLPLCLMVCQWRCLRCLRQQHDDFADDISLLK
UniProt Q9Y5Z0, 63-518 limits assumed: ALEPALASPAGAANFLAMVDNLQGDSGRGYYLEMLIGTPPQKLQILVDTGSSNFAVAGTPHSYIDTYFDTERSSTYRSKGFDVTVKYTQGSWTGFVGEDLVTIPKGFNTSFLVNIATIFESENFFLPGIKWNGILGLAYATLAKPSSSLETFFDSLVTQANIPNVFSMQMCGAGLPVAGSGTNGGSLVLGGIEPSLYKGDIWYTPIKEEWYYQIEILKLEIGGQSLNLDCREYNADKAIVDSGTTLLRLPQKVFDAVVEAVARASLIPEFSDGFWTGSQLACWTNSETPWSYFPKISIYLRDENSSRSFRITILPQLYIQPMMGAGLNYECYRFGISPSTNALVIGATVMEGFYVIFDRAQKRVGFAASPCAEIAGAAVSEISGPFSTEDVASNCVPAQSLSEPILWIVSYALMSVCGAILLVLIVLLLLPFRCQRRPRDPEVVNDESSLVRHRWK

Experiments:
human BACE1 = human BACE1 (Homo sapiens, UniProt P56817); assay: Fluorescent kinetic assay, inhibition of BACE1 (WABC-6 peptide substrate); format: biochemical; settings: read-out: IC50 (μM) BACE1.; 10 nM enzyme, 25 μM substrate, pH 4.5, room temperature
human BACE2 = human BACE2 (Homo sapiens, UniProt Q9Y5Z0); assay: Fluorescent kinetic assay for human recombinant BACE 2 (WABC-6 peptide substrate); format: biochemical; settings: read-out: IC50 (μM) BACE2.; 1.5 nM enzyme, 25 μM substrate, pH 4.5, room temperature

NC1=NC(c2ccc(OC(F)F)cc2)(c2cccc(-c3ccc(F)nc3)c2)C2=NCCCN12 (centres unmarked) was tested, and the IC50 (human BACE1) was 0.04 µM and the IC50 (human BACE2) was 1.66 µM.
